According to article PMC8703884, “Synthesis and Biological Evaluation of S-, O- and Se-Containing Dispirooxindoles” (Molecules, 2021):

Tested on: LNCaP human prostate cancer cell line
Test: MTT cytotoxicity test, LNCaP
Assay type: cell-based

## CN1CC2(NC(=[Se])N(c3ccc(F)c(Cl)c3)C2=O)C2(C1)C(=O)Nc1ccc(Cl)cc12 (stereo not shown) [Compound 6r, 5″-Chloro-1-(3-chloro-4-fluorophenyl)-1′-methyl-2-selenoxodispiro[imidazolidine-4,3′-pyrrolidine-4′,3″-indoline]-2″,5-dione]
  selectivity on LNCaP cells over PC3 cells: selective
